System: E. coli
Assay: In vitro antibacterial action, appearance of growth in Brain Heart Infusion, pH 5 (Table 5)
Conditions: for Incubation time and appearance of growth: pH 5, inoculation 10^5, Brain Heart Infusion, 3 replications

Question: Which results are given for Fumaric acid monoglycerides?
Answer: Incubation time and appearance of growth (10000 ppm): + (+ for 24 hr); Incubation time and appearance of growth (20000 ppm): + (+ for 24 hr); Incubation time and appearance of growth (40000 ppm): + (+ for 24 hr); Incubation time and appearance of growth (60000 ppm): no growth; Incubation time and appearance of growth (80000 ppm): no growth; Incubation time and appearance of growth (90000 ppm): no growth; Incubation time and appearance of growth (100000 ppm): no growth; Concentration exhibiting inhibitory potency (no growth) in all three replicates (E. coli, tested 10000-100000 ppm): ≥ 60,000 ppm

— patent US20120029075A1, “COMPOSITIONS CONTAINING C1 TO C7 ORGANIC ACID MONOGLYCERIDES AND GLYCEROL, THEIR PREPARATION AND USE AS ANTIBACTERIALS AND ANTI-MOULD AGENTS” (priority 2009, published 2012)
